{"source": "patent US20210393621A1", "about": "“COMBINATION SEROTONIN SPECIFIC REUPTAKE INHIBITOR AND SEROTONIN 1A RECEPTOR PARTIAL AGONIST FOR REDUCING L-DOPA-INDUCED DYSKINESIA” (The Research Foundation for The State University of new York, priority 2018, published 2021)", "key": {"[1]": {"tested_on": "unilateral 6-OHDA-lesioned rats", "experiment": "Example 2: stepping test", "format": "in vivo, Sprague-Dawley rats", "settings": "vilazodone 10 mg/kg or escitalopram 12.5 mg/kg + L-DOPA 5 mg/kg; 60 minutes post L-DOPA"}, "DRN 5-HT neurons": {"tested_on": "DRN 5-HT neurons", "experiment": "Example 3: in vivo single-unit recordings of DRN 5-HT neurons", "set-up": "species or system rats", "settings": "rat, iv"}}}
{"smiles": "Cl.N#Cc1ccc2[nH]cc(CCCCN3CCN(c4ccc5oc(C(N)=O)cc5c4)CC3)c2c1", "note": "[Vilazodone, 5-{4-[4-(5-cyano-3-indolyl)-butyl]-1-piperazinyl}-benzofuran-2-carboxamide hydrochloride]", "values": [{"measurement": "forelimb akinesia and L-DOPA prokinetic / therapeutic efficacy (stepping test)", "setting": "[1]", "result": "had no effects on forelimb akinesia or L-DOPA-induced prokinetic effects"}]}
{"smiles": "CCCN1CCC[C@@H]2Cc3n[nH]cc3C[C@H]21", "note": "[quinpirole]", "values": [{"measurement": "firing of 5-HT cells in AAV-D2Rs injected rats", "setting": "DRN 5-HT neurons", "result": "exhibited clear inhibitory effects"}]}
